Chains of the proteins cited; added tags and fusions are not shown. Chains listed by the source or under a name are the forms on record and can include a tag or linker. Residues count along the entry.
UniProt P02745, 23-245: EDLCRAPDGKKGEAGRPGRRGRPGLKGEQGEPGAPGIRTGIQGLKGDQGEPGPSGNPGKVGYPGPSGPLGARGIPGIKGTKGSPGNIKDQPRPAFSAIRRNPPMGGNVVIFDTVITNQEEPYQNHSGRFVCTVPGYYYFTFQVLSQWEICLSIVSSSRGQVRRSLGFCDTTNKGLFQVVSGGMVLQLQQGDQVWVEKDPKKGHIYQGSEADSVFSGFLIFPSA
C1q, UniProt P02746, 28-253: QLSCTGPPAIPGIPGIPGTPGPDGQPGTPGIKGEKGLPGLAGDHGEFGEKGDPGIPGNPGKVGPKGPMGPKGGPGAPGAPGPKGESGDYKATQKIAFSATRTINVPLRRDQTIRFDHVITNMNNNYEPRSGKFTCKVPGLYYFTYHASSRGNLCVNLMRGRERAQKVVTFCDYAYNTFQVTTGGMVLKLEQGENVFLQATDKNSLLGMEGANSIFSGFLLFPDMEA
C1q, UniProt P02747, 29-245: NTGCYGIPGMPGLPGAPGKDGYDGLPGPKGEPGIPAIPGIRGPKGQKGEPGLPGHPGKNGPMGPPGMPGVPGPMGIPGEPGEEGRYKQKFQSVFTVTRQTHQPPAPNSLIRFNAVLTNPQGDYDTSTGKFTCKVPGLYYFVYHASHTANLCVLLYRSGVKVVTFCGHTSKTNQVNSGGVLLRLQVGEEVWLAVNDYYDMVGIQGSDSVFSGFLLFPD
AK105 (hG1WT), a version of penpulimab with wildtype IgG1 backbone (human), heavy, as listed by the source, chain 1 of 2: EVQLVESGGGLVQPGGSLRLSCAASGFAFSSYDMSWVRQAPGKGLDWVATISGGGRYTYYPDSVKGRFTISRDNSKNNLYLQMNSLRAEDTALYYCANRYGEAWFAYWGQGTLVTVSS
AK105 (hG1WT), a version of penpulimab with wildtype IgG1 backbone (human), light, as listed by the source, chain 2 of 2: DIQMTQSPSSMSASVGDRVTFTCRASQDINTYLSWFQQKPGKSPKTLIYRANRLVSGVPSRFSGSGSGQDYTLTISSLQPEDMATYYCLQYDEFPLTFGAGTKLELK

In publication PMC9272907, “Penpulimab, an Fc-Engineered IgG1 Anti-PD-1 Antibody, With Improved Efficacy and Low Incidence of Immune-Related Adverse Events” (Frontiers in Immunology, 2022):

Biological target: AK105 (hG1WT), a version of penpulimab with wildtype IgG1 backbone (human)
Assay: BLI; ForteBio Octet QKe; antibodies (50 μg/mL) immobilised on FAB2G sensor; C1q 20 nM to 1.25 nM in solution; 60 s binding and 60 s dissociation

C1q (from UniProt P02745 23-245; P02746 28-253; P02747 29-245) (complex)
Kd: 1.84 nM | koff: 0.0104 s⁻¹ | kon: 5.64e+06 M⁻¹ s⁻¹
